A word on the AUC: it is the area under the concentration-time curve, a measure of exposure. Usually CL/F stands for clearance divided by bioavailability, as obtained after extravascular dosing. As a reminder, the half-life is the time needed for the level to fall by half in the phase considered. Higher therefore signals slow loss. The Tmax is the time at which the peak concentration occurs. As a reminder, the EC50 is the concentration at which the effect is half-maximal. A high value points to lower potency in that assay.

Data set [1] in a line: in vivo. The following applies: BALB/c, mouse, po, 10 mg/kg.
Data set [2] can be described thus: in vivo. Conditions: BALB/c, mouse, po, 10 mg/kg. This is another data set of the same source.
Data set [3] can be described thus: in vivo. The following applies: BALB/c, mouse, po, 10 mg/kg. The source holds these as a separate data set.
A short description of data set [4]: in vivo. Conditions: BALB/c, mouse, po, 10 mg/kg. The source holds these as a separate data set.
A further data set deals with Toxoplasma gondii. Put plainly: microbe, parasite or virus in culture. Conditions: 44 h.

Turning to `CCOc1ccc2cc(-c3nn(C(C)(C)C)c(N)c3C(N)=O)cnc2c1`, in the data set “in vivo [1]”, the AUC was 40.5 µM·h. Also, in the data set “in vivo [2]”, the CL/F is 11.8 mL/min/kg. Further, the half-life in the data set “in vivo [3]” worked out at 1.47 h.

Take `CC(C)(C)n1nc(-c2cnc3cc(OC4CCC4)ccc3c2)c(C(N)=O)c1N`: the Tmax in “in vivo [4]” was 0.5 h. Also, the AUC in the data set “in vivo [1]” is 7.63 µM·h. This compound also showed a CL/F in the data set “in vivo [2]” of 57 mL/min/kg. In the data set “in vivo [3]”, this compound had a half-life of 0.7 h.

Consider `CCOc1ccc2cc(-c3nn(CC4CC4)c(N)c3C(N)=O)cnc2c1`, for which a half-maximal response with Toxoplasma gondii (EC50) required 1.21 µM.

`CC(C)(C)n1nc(-c2cnc3cc(OCC4CC4)ccc3c2)c(C(N)=O)c1N` came in with a CL/F in the data set “in vivo [2]” of 7.1 mL/min/kg. In the data set “in vivo [3]”, the half-life was 9.15 h. In addition, the EC50 in the data set with Toxoplasma gondii came to 1.47 µM.

For the compound `CC(C)(C)n1nc(-c2ccc3nc(OC4CC4)ccc3c2)c(C(N)=O)c1N`, the Tmax in the data set “in vivo [4]” was 2.67 h. The area under the curve (AUC) in “in vivo [1]” was 44.6 µM·h. Also, the CL/F in the data set “in vivo [2]” came out at 10.7 mL/min/kg. The compound further registered a half-life in “in vivo [3]” of 9.32 h.

As to `CC(C)(C)n1nc(-c2cnc3cc(OC4CC4)ccc3c2)c(C(N)=O)c1N`, in the data set “in vivo [4]”, the time to peak (Tmax) was 2.17 h. For the same compound, the AUC in the data set “in vivo [1]” is 308 µM·h. The compound also gave a CL/F in “in vivo [2]” of 1.4 mL/min/kg. Moreover, the half-life in the data set “in vivo [3]” was found to be 4.83 h.

In the data set with Toxoplasma gondii, `CC(C)Oc1ccc2cc(-c3nn(C(C)(C)C)c(N)c3C(N)=O)cnc2c1` had an EC50 of 1.21 µM.

The compound `CCOc1ccc2cc(-c3nn(CC(C)(C)CO)c(N)c3C(N)=O)cnc2c1` gave an EC50 in the data set with Toxoplasma gondii of 1.19 µM.

Take `CCOc1ccc2cc(-c3nn(C4CCCCC4)c(N)c3C(N)=O)cnc2c1`: in the data set “in vivo [2]”, the CL/F is 16.4 mL/min/kg. The half-life in the data set “in vivo [3]” came to 3.4 h. Also, the EC50 in the data set on Toxoplasma gondii turned out to be 0.33 µM.

On to `CCOc1ccc2cc(-c3nn(CC(C)(C)CO)c(N)c3C(N)=O)ccc2n1`, for which the Tmax in “in vivo [4]” is 0.5 h. The compound also had an AUC in the data set “in vivo [1]” of 2.33 µM·h. This compound also displayed a CL/F in “in vivo [2]” of 186 mL/min/kg. Also, in “in vivo [3]”, the half-life is under 0.5 h.

`CCOc1ccc2cc(-c3nn(CC4CC4)c(N)c3C(N)=O)ccc2n1` registered an EC50 in the data set with Toxoplasma gondii of 0.48 µM.

The compound `CCOc1ccc2cc(-c3nn(C(C)(C)C)c(N)c3C(N)=O)ccc2n1` showed a CL/F in “in vivo [2]” of 16.7 mL/min/kg. The half-life in “in vivo [3]” came out at 2.23 h.

For the origin of these results see ChEMBL document CHEMBL3769379, “SAR Studies of 5-Aminopyrazole-4-carboxamide Analogues as Potent and Selective Inhibitors of Toxoplasma gondii CDPK1” (ACS Med Chem Lett, 2015).
